From patent US9302989B2 (priority 2010, dated 2016)

Chains of the proteins cited; added tags and fusions are not shown. Lines headed by an entry give the natural chain unless they say otherwise; changes in a name come on top.
UniProt P43490: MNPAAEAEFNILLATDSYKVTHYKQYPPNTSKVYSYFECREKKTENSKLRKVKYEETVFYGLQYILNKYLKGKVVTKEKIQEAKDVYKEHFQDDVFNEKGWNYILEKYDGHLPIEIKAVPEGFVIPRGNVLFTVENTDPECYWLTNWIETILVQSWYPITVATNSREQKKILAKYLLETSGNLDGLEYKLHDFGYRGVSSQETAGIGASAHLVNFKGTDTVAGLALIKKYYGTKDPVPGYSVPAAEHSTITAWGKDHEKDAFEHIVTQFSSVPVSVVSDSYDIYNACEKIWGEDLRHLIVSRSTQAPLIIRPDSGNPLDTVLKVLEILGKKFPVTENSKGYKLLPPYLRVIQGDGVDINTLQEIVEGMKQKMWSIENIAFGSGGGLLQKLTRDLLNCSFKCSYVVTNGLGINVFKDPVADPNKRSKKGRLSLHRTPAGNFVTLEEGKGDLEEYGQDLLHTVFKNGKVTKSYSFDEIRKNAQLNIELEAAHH

Biological target: NAMPT (Homo sapiens (Human), UniProt P43490)
Settings: read-out: TR-FRET Binding IC50 (μM) probe 1

| SMILES | IC50 |
| --- | --- |
| O=C(Nc1cnn(Cc2ccccc2)c1)c1ccc(NC(=O)N2Cc3ccccc3C2)cc1 [Example 92, N-{4-[(1-benzyl-1H-pyrazol-4-yl)carbamoyl]phenyl}-1,3-dihydro-2H-isoindole-2-carboxamide] | 0.0346 µM |
| COC(=O)c1n[nH]c2ccc(NC(=O)c3ccc(NC(=O)N4Cc5ccccc5C4)cc3)cc12 [Example 93, methyl 5-({4-[(1,3-dihydro-2H-isoindol-2-ylcarbonyl)amino]benzoyl}amino)-1H-indazole-3-carboxylate] | 0.0351 µM |
| O=C(NCCN1CCCC1=O)c1ccc(NC(=O)N2Cc3ccccc3C2)cc1 [Example 94, N-(4-{[2-(2-oxopyrrolidin-1-yl)ethyl]carbamoyl}phenyl)-1,3-dihydro-2H-isoindole-2-carboxamide] | 0.0354 µM |
| O=C(Nc1ccc(C(=O)N2CCN(c3ccc(Cl)cn3)CC2)cc1)N1Cc2ccccc2C1 [Example 96, N-(4-{[4-(5-chloropyridin-2-yl)piperazin-1-yl]carbonyl}phenyl)-1,3-dihydro-2H-isoindole-2-carboxamide] | 0.0365 µM |
| O=C(NCCc1c[nH]c2ccccc12)c1ccc(NC(=O)N2Cc3ccccc3C2)cc1 [Example 97, N-(4-{[2-(1H-indol-3-yl)ethyl]carbamoyl}phenyl)-1,3-dihydro-2H-isoindole-2-carboxamide] | 0.037 µM |
| O=C(NCc1ccc(C(F)(F)F)cc1)c1ccc(NC(=O)N2Cc3ccccc3C2)cc1 [Example 98, N-(4-{[4-(trifluoromethyl)benzyl]carbamoyl}phenyl)-1,3-dihydro-2H-isoindole-2-carboxamide] | 0.0381 µM |
| COc1cc(NC(=O)c2ccc(NC(=O)N3Cc4ccccc4C3)cc2)cc(OC)c1 [Example 99, N-{4-[(3,5-dimethoxyphenyl)carbamoyl]phenyl}-1,3-dihydro-2H-isoindole-2-carboxamide] | 0.0382 µM |
| O=C(Nc1ccc2c(c1)OCCO2)c1ccc(NC(=O)N2Cc3ccccc3C2)cc1 [Example 101, N-[4-(2,3-dihydro-1,4-benzodioxin-6-ylcarbamoyl)phenyl]-1,3-dihydro-2H-isoindole-2-carboxamide] | 0.0393 µM |
| O=C(Nc1ccc(C(=O)N2CCN(C(=O)c3ccccc3F)CC2)cc1)N1Cc2ccccc2C1 [Example 102, N-(4-{[4-(2-fluorobenzoyl)piperazin-1-yl]carbonyl}phenyl)-1,3-dihydro-2H-isoindole-2-carboxamide] | 0.0395 µM |
| COc1ccc2[nH]cc(CCNC(=O)c3ccc(NC(=O)N4Cc5ccccc5C4)cc3)c2c1 [Example 103, N-(4-{[2-(5-methoxy-1H-indol-3-yl)ethyl]carbamoyl}phenyl)-1,3-dihydro-2H-isoindole-2-carboxamide] | 0.0395 µM |
| Nc1cccc(CNC(=O)c2ccc(NC(=O)N3Cc4ccccc4C3)cc2)c1 [Example 104, N-{4-[(3-aminobenzyl)carbamoyl]phenyl}-1,3-dihydro-2H-isoindole-2-carboxamide] | 0.0395 µM |
| O=C(NCCc1ccccc1Cl)c1ccc(NC(=O)N2Cc3ccccc3C2)cc1 [Example 105, N-(4-{[2-(2-chlorophenyl)ethyl]carbamoyl}phenyl)-1,3-dihydro-2H-isoindole-2-carboxamide] | 0.0397 µM |
| CC(C)C[C@H](CO)NC(=O)c1ccc(NC(=O)N2Cc3ccccc3C2)cc1 [Example 106, N-(4-{[(2R)-1-hydroxy-4-methylpentan-2-yl]carbamoyl}phenyl)-1,3-dihydro-2H-isoindole-2-carboxamide] | 0.0263 µM |
| CCCOCCNC(=O)c1ccc(NC(=O)N2Cc3ccccc3C2)cc1 [Example 107, N-{4-[(2-propoxyethyl)carbamoyl]phenyl}-1,3-dihydro-2H-isoindole-2-carboxamide] | 0.0408 µM |
| CC(C)COCCCNC(=O)c1ccc(NC(=O)N2Cc3ccccc3C2)cc1 [Example 108, N-{4-[(3-isobutoxypropyl)carbamoyl]phenyl}-1,3-dihydro-2H-isoindole-2-carboxamide] | 0.0408 µM |
| O=C(Nc1ccc(C(=O)N2CCN(c3ccncc3)CC2)cc1)N1Cc2ccccc2C1 [Example 109, N-(4-{[4-(pyridin-4-yl)piperazin-1-yl]carbonyl}phenyl)-1,3-dihydro-2H-isoindole-2-carboxamide] | 0.0412 µM |
| O=C(Nc1ccc(C(=O)N2CCN(c3ccc(C(F)(F)F)cn3)CC2)cc1)N1Cc2ccccc2C1 [Example 110, N-[4-({4-[5-(trifluoromethyl)pyridin-2-yl]piperazin-1-yl}carbonyl)phenyl]-1,3-dihydro-2H-isoindole-2-carboxamide] | 0.0422 µM |
| COc1cc(NC(=O)c2ccc(NC(=O)N3Cc4ccccc4C3)cc2)cc(OC)c1OC [Example 111, N-{4-[(3,4,5-trimethoxyphenyl)carbamoyl]phenyl}-1,3-dihydro-2H-isoindole-2-carboxamide] | 0.044 µM |
| CC1CCN(C(=O)c2ccc(NC(=O)N3Cc4ccccc4C3)cc2)CC1 [Example 112, N-{4-[(4-methylpiperidin-1-yl)carbonyl]phenyl}-1,3-dihydro-2H-isoindole-2-carboxamide] | 0.0445 µM |
| CN(C)c1ccc(CCNC(=O)c2ccc(NC(=O)N3Cc4ccccc4C3)cc2)cc1 [Example 113, N-[4-({2-[4-(dimethylamino)phenyl]ethyl}carbamoyl)phenyl]-1,3-dihydro-2H-isoindole-2-carboxamide] | 0.0445 µM |

| SMILES | IC50 |
| --- | --- |
| O=C(NCc1cccc(OC(F)(F)F)c1)c1ccc(NC(=O)N2Cc3ccccc3C2)cc1 [Example 114, N-(4-{[3-(trifluoromethoxy)benzyl]carbamoyl}phenyl)-1,3-dihydro-2H-isoindole-2-carboxamide] | 0.0461 µM |
| O=C(N[C@H](CCO)c1ccccc1)c1ccc(NC(=O)N2Cc3ccccc3C2)cc1 [Example 115, N-(4-{[(1R)-3-hydroxy-1-phenylpropyl]carbamoyl}phenyl)-1,3-dihydro-2H-isoindole-2-carboxamide] | 0.0465 µM |
| N#Cc1cccc(NC(=O)c2ccc(NC(=O)N3Cc4ccccc4C3)cc2)c1 [Example 116, N-{4-[(3-cyanophenyl)carbamoyl]phenyl}-1,3-dihydro-2H-isoindole-2-carboxamide] | 0.0465 µM |
| COc1ccc(NC(=O)c2ccc(NC(=O)N3Cc4ccccc4C3)cc2)cc1F [Example 117, N-{4-[(3-fluoro-4-methoxyphenyl)carbamoyl]phenyl}-1,3-dihydro-2H-isoindole-2-carboxamide] | 0.0481 µM |
| COc1cccc(NC(=O)c2ccc(NC(=O)N3Cc4ccccc4C3)cc2)c1OC [Example 118, N-{4-[(2,3-dimethoxyphenyl)carbamoyl]phenyl}-1,3-dihydro-2H-isoindole-2-carboxamide] | 0.0481 µM |
| O=C(NCCc1ccccc1F)c1ccc(NC(=O)N2Cc3ccccc3C2)cc1 [Example 119, N-(4-{[2-(2-fluorophenyl)ethyl]carbamoyl}phenyl)-1,3-dihydro-2H-isoindole-2-carboxamide] | 0.0484 µM |
| CC(C)CNC(=O)c1ccc(NC(=O)N2Cc3ccccc3C2)cc1 [Example 120, N-[4-(isobutylcarbamoyl)phenyl]-1,3-dihydro-2H-isoindole-2-carboxamide] | 0.049 µM |
| O=C(NCCc1ccc2c(c1)OCO2)c1ccc(NC(=O)N2Cc3ccccc3C2)cc1 [Example 121, N-(4-{[2-(1,3-benzodioxol-5-yl)ethyl]carbamoyl}phenyl)-1,3-dihydro-2H-isoindole-2-carboxamide] | 0.0493 µM |
| COc1ccccc1CCNC(=O)c1ccc(NC(=O)N2Cc3ccccc3C2)cc1 [Example 122, N-(4-{[2-(2-methoxyphenyl)ethyl]carbamoyl}phenyl)-1,3-dihydro-2H-isoindole-2-carboxamide] | 0.0511 µM |
| CCCCNC(=O)c1ccc(NC(=O)N2Cc3ccccc3C2)cc1 [Example 123, N-[4-(butylcarbamoyl)phenyl]-1,3-dihydro-2H-isoindole-2-carboxamide] | 0.0515 µM |
| CC(C)OCCNC(=O)c1ccc(NC(=O)N2Cc3ccccc3C2)cc1 [Example 124, N-{4-[(2-isopropoxyethyl)carbamoyl]phenyl}-1,3-dihydro-2H-isoindole-2-carboxamide] | 0.0517 µM |
| CC(C)OCCCNC(=O)c1ccc(NC(=O)N2Cc3ccccc3C2)cc1 [Example 125, N-{4-[(3-isopropoxypropyl)carbamoyl]phenyl}-1,3-dihydro-2H-isoindole-2-carboxamide] | 0.0518 µM |
| O=C(NCCCc1ccccc1)c1ccc(NC(=O)N2Cc3cccc(Cl)c3C2)cc1 [Example 126, 4-chloro-N-{4-[(3-phenylpropyl)carbamoyl]phenyl}-1,3-dihydro-2H-isoindole-2-carboxamide] | 0.0537 µM |
| COc1ccc(CCNC(=O)c2ccc(NC(=O)N3Cc4ccccc4C3)cc2)cc1 [Example 127, N-(4-{[2-(4-methoxyphenyl)ethyl]carbamoyl}phenyl)-1,3-dihydro-2H-isoindole-2-carboxamide] | 0.0539 µM |
| COCCCNC(=O)c1ccc(NC(=O)N2Cc3ccccc3C2)cc1 [Example 128, N-{4-[(3-methoxypropyl)carbamoyl]phenyl}-1,3-dihydro-2H-isoindole-2-carboxamide] | 0.0553 µM |
| O=C(NCCc1ccc(F)cc1)c1ccc(NC(=O)N2Cc3ccccc3C2)cc1 [Example 129, N-(4-{[2-(4-fluorophenyl)ethyl]carbamoyl}phenyl)-1,3-dihydro-2H-isoindole-2-carboxamide] | 0.0567 µM |
| O=C(NCCCN1CCCC1=O)c1ccc(NC(=O)N2Cc3ccccc3C2)cc1 [Example 130, N-(4-{[3-(2-oxopyrrolidin-1-yl)propyl]carbamoyl}phenyl)-1,3-dihydro-2H-isoindole-2-carboxamide] | 0.0567 µM |
| COc1ccc(NC(=O)c2ccc(NC(=O)N3Cc4ccccc4C3)cc2)c(OC)c1 [Example 131, N-{4-[(2,4-dimethoxyphenyl)carbamoyl]phenyl}-1,3-dihydro-2H-isoindole-2-carboxamide] | 0.0573 µM |
| CCCNC(=O)c1ccc(NC(=O)N2Cc3ccc(C(N)=O)cc3C2)cc1 [Example 132, N^2-[4-(propylcarbamoyl)phenyl]-1,3-dihydro-2H-isoindole-2,5-dicarboxamide] | 0.0581 µM |
| O=C(NCCOc1ccccc1)c1ccc(NC(=O)N2Cc3ccccc3C2)cc1 [Example 133, N-{4-[(2-phenoxyethyl)carbamoyl]phenyl}-1,3-dihydro-2H-isoindole-2-carboxamide] | 0.0582 µM |
